Experimental data reported in article PMC4337820 (Journal of medicinal chemistry, 2015).

System: T. cruzi, strain Tulahuen C4 amastigotes
Experiment: In vitro activity against T. cruzi amastigotes
Assay type: cell-based

| SMILES | antichagasic activity class (TDR criteria) |
| --- | --- |
| CC1(c2ccc(-n3ccnc3)cc2)CO1 (centres unmarked) [Compound 22, 1-(4-(2-methyloxiran-2-yl)phenyl)-1H-imidazole] | inactive |
| CC(O)(Cn1cncn1)c1ccc(-n2ccnc2)cc1 (centres unmarked) [Compound 15, 2-[4-(1H-imidazol-1-yl)phenyl]-1-(1H-1,2,4-triazol-1-yl)propan-2-ol] | inactive |
